Experiments:
[1] = target: T1, Intermediate conductance calcium-activated potassium channel protein 4 (Homo sapiens, UniProt O15554); test: Inhibition of Kca 3.1 (unknown origin)
[2] = target: T1, Intermediate conductance calcium-activated potassium channel protein 4; test: Inhibition of gardos channel (unknown origin)
[3] = target: T2, Gamma-aminobutyric acid receptor subunit alpha-5 (Homo sapiens) (UniProt P31644); test: Positive allosteric modulation of GABAA alpha5 (unknown origin) relative to control
T2 sequence (whole entry): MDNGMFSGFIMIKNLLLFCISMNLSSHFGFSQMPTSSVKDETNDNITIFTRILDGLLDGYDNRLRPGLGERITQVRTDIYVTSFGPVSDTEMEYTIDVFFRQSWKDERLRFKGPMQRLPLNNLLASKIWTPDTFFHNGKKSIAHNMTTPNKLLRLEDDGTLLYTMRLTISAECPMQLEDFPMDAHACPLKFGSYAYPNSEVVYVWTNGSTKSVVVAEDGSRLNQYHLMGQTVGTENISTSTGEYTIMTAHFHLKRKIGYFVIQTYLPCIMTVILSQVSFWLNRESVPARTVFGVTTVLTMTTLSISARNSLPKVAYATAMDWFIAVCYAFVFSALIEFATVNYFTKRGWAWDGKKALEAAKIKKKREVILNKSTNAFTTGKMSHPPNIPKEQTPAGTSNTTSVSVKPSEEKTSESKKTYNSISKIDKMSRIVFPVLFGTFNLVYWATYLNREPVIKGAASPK

By UniProt entry, the sequences of proteins in these tests, tags left out.
UniProt O15554, whole entry: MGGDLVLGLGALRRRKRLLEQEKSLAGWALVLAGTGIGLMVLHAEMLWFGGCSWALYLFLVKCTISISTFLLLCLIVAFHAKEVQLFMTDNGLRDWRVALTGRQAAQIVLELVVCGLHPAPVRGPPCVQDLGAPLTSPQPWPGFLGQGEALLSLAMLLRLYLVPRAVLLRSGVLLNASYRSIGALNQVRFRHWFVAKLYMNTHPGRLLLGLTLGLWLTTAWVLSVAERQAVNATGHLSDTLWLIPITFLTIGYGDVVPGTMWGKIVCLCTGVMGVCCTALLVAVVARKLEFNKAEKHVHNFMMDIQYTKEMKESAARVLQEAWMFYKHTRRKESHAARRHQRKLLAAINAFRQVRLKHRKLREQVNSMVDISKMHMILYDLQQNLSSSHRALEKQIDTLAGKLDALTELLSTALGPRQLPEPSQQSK

[4] = target: T3, Gamma-aminobutyric acid receptor subunit alpha-1 (Homo sapiens) (UniProt P14867); test: Positive allosteric modulation of GABAA alpha1 (unknown origin) relative to control
T3 sequence (whole entry): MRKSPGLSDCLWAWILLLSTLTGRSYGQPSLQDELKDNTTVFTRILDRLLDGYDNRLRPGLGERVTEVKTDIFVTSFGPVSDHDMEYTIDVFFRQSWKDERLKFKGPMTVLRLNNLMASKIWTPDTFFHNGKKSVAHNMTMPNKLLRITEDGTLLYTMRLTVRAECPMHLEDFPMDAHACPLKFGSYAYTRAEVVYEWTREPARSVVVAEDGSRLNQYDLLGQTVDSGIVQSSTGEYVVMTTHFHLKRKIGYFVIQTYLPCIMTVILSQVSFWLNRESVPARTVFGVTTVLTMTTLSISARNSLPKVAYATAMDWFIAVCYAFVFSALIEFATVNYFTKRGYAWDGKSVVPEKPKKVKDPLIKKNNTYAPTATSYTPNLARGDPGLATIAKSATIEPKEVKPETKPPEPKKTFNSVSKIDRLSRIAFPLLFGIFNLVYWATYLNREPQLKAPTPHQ

[5] = target: T4, Gamma-aminobutyric acid receptor subunit alpha-3 (Homo sapiens) (UniProt P34903); test: Positive allosteric modulation of GABAA alpha3 (unknown origin) relative to control
T4 sequence (whole entry): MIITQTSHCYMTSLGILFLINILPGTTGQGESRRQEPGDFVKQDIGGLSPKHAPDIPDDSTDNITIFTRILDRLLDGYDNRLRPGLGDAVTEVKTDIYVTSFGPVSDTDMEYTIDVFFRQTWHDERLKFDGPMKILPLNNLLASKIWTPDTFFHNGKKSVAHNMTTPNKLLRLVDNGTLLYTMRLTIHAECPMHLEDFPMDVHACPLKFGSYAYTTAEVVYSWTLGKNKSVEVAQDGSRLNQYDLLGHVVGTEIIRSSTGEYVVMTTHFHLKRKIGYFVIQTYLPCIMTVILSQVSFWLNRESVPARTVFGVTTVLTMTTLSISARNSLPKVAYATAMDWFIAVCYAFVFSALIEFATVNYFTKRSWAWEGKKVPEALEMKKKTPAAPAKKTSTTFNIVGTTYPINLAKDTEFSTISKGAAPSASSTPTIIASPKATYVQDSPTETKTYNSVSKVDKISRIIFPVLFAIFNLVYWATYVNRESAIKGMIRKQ

In the case of NC(=O)C(c1ccccc1)(c1ccc(F)cc1)c1ccc(F)cc1 [SENICAPOC], the IC50 [1] is reported as 0.006 µM and the IC50 [2] is reported as 11 µM.

Cc1cc(-c2nncc3c(C(C)(C)C)c(OCc4ncnn4C)nn23)no1 was tested, and the Activity [3] was -96%.

With Cc1csc(-c2cc(-c3ccncc3)c3n(c2=O)CCCc2ccncc2-3)n1 the Activity [4] was 0% and the Activity [5] was 45%.
